Earlier results on one compound are cited in EP4768496A1, “METHOD FOR PRODUCING PEPTIDE COMPOUND USING TWO OR MORE ADDITIVES” (Chugai Seiyaku Kabushiki Kaisha, priority 2023, dated 2025).

The conditions of this data set: additive; reported literature value, water as solvent, 25°C.

By pKa is commonly meant the negative logarithm of the acid dissociation constant. `O=[N+]([O-])C(=NO)[N+](=O)[O-]`: the pKa was 2.7.
